Data reported in US20200157156A1, “GRATELOUPIA CHIANGII-DERIVED LECTIN AND LECTIN GENE CODING FOR THE SAME” (priority 2018, published 2020).

Assay: Cytotoxicity (cell viability, MTT method)
Method: The antiviral effect was determined through cell viability, and the like using a virus-induced cytopathic effect (CPE) inhibition method and an MTT method.

Substance: Concanavalin A
- Toxicity CC50: 29.29 µg/mL

Substance: dextran sulfate 8000
- Toxicity CC50: >100 µg/mL
